Consider 1 molecule from US10450585B2, “Delivery methods and compositions for nuclease-mediated genome engineering” (Sangamo Therapeutics, Inc., priority 2015, dated 2019).

The experiment has as its system human patient-derived primary hepatocytes. In words: AAV2/6 ZFN transduction of primary hepatocytes with PDGFR inhibitor; % indels. It is filed as cell-based. The method, then:
We next tested the effect of PDGFR inhibitors human patient-derived primary hepatocytes. For human hepatocytes, 48-well cell culture dishes were purchased pre-coated with collagen (Life Technologies). Plates were incubated for 1 hour at 37° C. Thawing/plating media was prepared by combining 18 mL InVitroGRO CP medium (BioreclamationIVT) and 400 μL Torpedo antibiotic mix (Celsis In Vitro Technologies). Once the plates were prepared, the plate-able human hepatocytes (Lot# AKB), were transferred from the liquid nitrogen vapor phase directly into the 37° C. water bath and thawed under gently stirring. The cells were transferred directly into a 50 ml conical tube containing 5 mL of pre-warmed thawing/plating medium. To retrieve all the cells, the vial was washed with 1 mL of thawing/plating medium, which was added to the cells. Following resuspension of the cells, a small aliquot (20 μL) was removed to perform a cell count and to determine cell viability using trypan blue solution (1:5; Corning, Cat#25-900-C1). The cells were then centrifuged at 75×g for 5 minutes, the supernatant was removed and the cells were resuspended at 1e6 cells/mL. […]
One day after the cells were plated, cells were switched to HCM maintenance medium (Lonza, HBM and HCM SingleQuots). […] Genomic DNA was extracted and analyzed by deep sequencing (MiSeq) at the albumin locus.

The structures appear in SMILES notation.

For `CC1(COc2ccc3c(c2)ncn3-c2ccc3cccc(N4CCC(N)CC4)c3n2)COC1` [PDGFRi], the “increase in AAV2/6 transduction compared to DMSO treated controls” value (high dose 9 μM, absence of serum) is 5 fold. Also, the “increased AAV2/6 transduction compared to DMSO treated controls” value (low dose (3)) is given as “not”.
